One compound from paper PMC9320628, “Analysis of Structural Determinants of Peptide MS 9a-1 Essential for Potentiating of TRPA1 Channel” (Marine Drugs, 2022) can be followed below.

Sequences of proteins named here, by UniProt entry; tags and fusion partners are left off.
UniProt Q6RI86, whole entry: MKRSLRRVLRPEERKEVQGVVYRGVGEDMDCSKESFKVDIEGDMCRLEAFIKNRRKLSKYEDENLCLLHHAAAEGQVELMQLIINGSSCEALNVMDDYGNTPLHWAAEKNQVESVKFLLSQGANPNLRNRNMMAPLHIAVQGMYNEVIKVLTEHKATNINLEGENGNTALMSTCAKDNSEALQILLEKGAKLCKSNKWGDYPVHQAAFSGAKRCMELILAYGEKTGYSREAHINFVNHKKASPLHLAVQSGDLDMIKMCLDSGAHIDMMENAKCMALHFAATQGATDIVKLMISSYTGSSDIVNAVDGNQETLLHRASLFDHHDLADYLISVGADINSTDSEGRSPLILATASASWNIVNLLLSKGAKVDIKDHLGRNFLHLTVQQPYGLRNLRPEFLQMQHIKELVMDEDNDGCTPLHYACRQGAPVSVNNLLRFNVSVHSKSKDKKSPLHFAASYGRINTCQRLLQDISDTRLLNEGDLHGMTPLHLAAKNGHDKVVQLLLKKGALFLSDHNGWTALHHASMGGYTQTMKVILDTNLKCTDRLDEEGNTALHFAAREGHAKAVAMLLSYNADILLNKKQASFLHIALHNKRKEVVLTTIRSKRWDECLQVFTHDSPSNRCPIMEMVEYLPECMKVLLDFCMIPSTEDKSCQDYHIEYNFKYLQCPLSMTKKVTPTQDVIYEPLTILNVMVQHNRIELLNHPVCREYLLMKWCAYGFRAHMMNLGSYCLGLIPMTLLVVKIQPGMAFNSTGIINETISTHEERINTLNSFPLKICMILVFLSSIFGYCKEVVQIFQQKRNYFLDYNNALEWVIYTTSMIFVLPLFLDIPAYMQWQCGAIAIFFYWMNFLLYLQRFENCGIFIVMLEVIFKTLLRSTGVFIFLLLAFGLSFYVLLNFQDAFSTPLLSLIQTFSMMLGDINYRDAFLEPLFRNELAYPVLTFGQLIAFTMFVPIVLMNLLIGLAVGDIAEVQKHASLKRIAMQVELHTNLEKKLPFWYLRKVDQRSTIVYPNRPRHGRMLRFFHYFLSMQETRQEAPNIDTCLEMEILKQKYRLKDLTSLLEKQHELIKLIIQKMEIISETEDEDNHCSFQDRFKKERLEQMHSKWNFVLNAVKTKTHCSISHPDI

Experiment [1] deals with Adult male CD-1 mice. The experiment can be described thus: CFA-induced inflammation and thermal hyperalgesia (hot plate, paw edema). The class given is in vivo. Conditions: i.v. 24 h after CFA, doses up to 0.5 mg/kg, hot plate 53 °C 30 min after peptide, n = 5–9. The text has this: (§1) The study fully conforms to the World Health Organization’s International Guiding Principles for Biomedical Research Involving Animals. All experiments were approved by the Institutional Commission for the Control and Use of Laboratory Animals of the Branch of the Shemyakin–Ovchinnikov Institute of Bioorganic Chemistry of the Russian Academy of Sciences (protocol number: IACUC No. 891/22, date of approval: 17 May 2022). Adult male CD-1 mice (weight ~30 g) were housed at room temperature (23 ± 2 °C) and subjected to a 12 h light–dark cycle with food and water available ad libitum. Peptides were dissolved in saline. The significance of the data was determined by analysis of variance (ANOVA) followed by Turkey’s post hoc test. Data are presented as mean ± SD.
Test was induced using CFA suspended in an oil/saline (1:1) emulsion. […] Paw withdrawal latency was recorded using a hot plate (53 °C) 30 min after peptide or saline administration. The diameter of the paw was evaluated before CFA injection, before peptides or saline administration and 2, 4, and 24 h after peptides or saline administration using electronic digital caliper. Percent inflammation was calculated according to the formula ((post-dose paw diameter − before CFA paw diameter)/(control post-dose paw diameter − control before CFA paw diameter)) × 100%.

Experiment [2] has as its target T1, rat TRPA1 (Q6RI86) channel (Rattus norvegicus, UniProt Q6RI86).
T1 construct: expressed in transfected cells; host or cells: Xenopus laevis oocytes injected with cRNA
The experiment can be described thus: Potentiation of diclofenac-induced TRPA1 currents, two-electrode recordings in Xenopus laevis oocytes. Type of experiment: cell-based. Conditions: higher than Ms 9a-1. Here is the method: Peptide activity was measured in Xenopus laevis oocytes, heterologously expressing the TRPA1 channel (Figure 2 and Figure S2). Recordings occurred in repeated 4 s pulses of voltage ramp from −100 mV to 100 mV over 200 ms, whereby inward current was measured at −100 mV and outward at 100 mV.
Oocytes expressing rat TRPA1 (Q6RI86) channel were prepared as described previously. Experiments were approved by the Institutional Animal Care and Use Committee (IACUC) of the Shemyakin–Ovchinnikov Institute of Bioorganic Chemistry Russian Academy of Sciences (Protocol Number 267/2018; date of approval: 28 February 2019). Female frogs were anaesthetized with 0.17% solution of tricaine methane sulfonate (MS222) and oocytes were surgically removed. cRNA was synthesized using a HiScribe™ T7 High Yield RNA Synthesis Kit (New England Biolabs, Ipswich, MA, USA) according to the manufacturers’ protocol for capped transcripts and then injected in X. laevis oocytes. The oocytes were kept for 2–7 days at 16–17 °C in sterile ND-96 medium (96 mM NaCl, 2 mM KCl, 1.8 mM CaCl2, 1 mM MgCl2, 5 mM HEPES, pH 7.4) supplemented with 50 μg/mL gentamycin. […] Inward/outward currents were recorded at repeated every 4 seconds a stimuli comprising step from holding potential to −100 mV for 80 ms followed by voltage ramp from −100 mV to +100 mV for 200 ms and final step to holding potential. […]

In experiment [3] the test system is Adult male CD-1 mice. The experiment can be described thus: AITC-induced pain model (paw guarding, paw licks, paw edema). Particulars: for Effect on development of AITC-induced paw edema: 4 h after AITC. The class given is in vivo.
From the text: as §1
To produce nocifensive behavioral response, TRPA1 agonist AITC (20 μL, 0.5% in saline) was injected into the plantar surface of the hind paw. Peptides or saline were administrated i.v. 30 min before AITC administration. The diameter of the paw was evaluated using an electronic digital caliper before the test and 2, 4, and 24 h after injection. The duration of paw guarding was recorded for 5 min after injection of AITC. Percent inflammation was calculated according to the formula ((post-dose paw diameter − before AITC paw diameter)/(control post-dose paw diameter − control before AITC paw diameter)) × 100%.

In the case of `CC[C@H](C)[C@@H]1NC(=O)[C@@H](NC(=O)CNC(=O)CNC(=O)[C@@H](NC(=O)[C@@H](NC(=O)[C@@H](NC(=O)[C@@H](N)CC(N)=O)[C@@H](C)CC)[C@@H](C)CC)C(C)C)CSSC[C@@H]2NC(=O)[C@H](CCCNC(=N)N)NC(=O)CNC(=O)[C@H](CO)NC(=O)[C@H](C)NC(=O)[C@H](CC(N)=O)NC(=O)[C@H](CCCCN)NC(=O)[C@H](C(C)C)NC(=O)[C@H](Cc3c[nH]cn3)NC(=O)[C@H](CSSC[C@@H](C(=O)NCC(=O)N[C@H](C(=O)O)C(C)C)NC(=O)CNC(=O)[C@H](C(C)C)NC(=O)[C@H]([C@@H](C)CC)NC(=O)[C@H](CCCNC(=N)N)NC(=O)[C@H](C(C)C)NC2=O)NC(=O)[C@H](CCCCN)NC1=O` [N-Ms], the “Effect on CFA-induced thermal hyperalgesia (paw withdrawal latency, hot plate)” value in the experiment on Adult male CD-1 mice [1] is “effective only at the highest dose tested”. The “Effective concentration for inward current compared to Ms 9a-1 (in words)” value in experiment [2] (inward current) is “of the same order of magnitude”. In experiment [2] (outward current), the “Effective concentration for outward current compared to Ms 9a-1 (in words)” value is on record as “increased by more than an order of magnitude”. The results for the “Effect on development of AITC-induced paw edema” value in the experiment with Adult male CD-1 mice [3] (0.072 mg/kg i.v.) and in the experiment on Adult male CD-1 mice [3] (0.3 mg/kg i.v.) were “significantly decreased” and “no significant effect”, respectively. Further, the “Decrease of duration of paw guarding after AITC” value with Adult male CD-1 mice [3] (i.v. 30 min before AITC (20 μL, 0.5%), 5 min interval, over the doses tested, n = 6–8) is 35–64%.
